# Assays:
# [1] = tested on: Peptostreptococcus sp. (22 isolated strains); test: MIC against clinically isolated strains (cumulation percent)
# [2] = tested on: Bacteroides fragilis (48 isolated strains); test: as above; assay type: cell-based; conditions: MIC 3.13 μg/ml
SMILES,Cumulation percent of MIC ([1]; MIC 0.39 μg/ml) [%],Cumulation percent of MIC ([1]; MIC 0.78 μg/ml) [%],Cumulation percent of MIC ([1]; MIC 1.56 μg/ml) [%],Cumulation percent of MIC ([1]; MIC 6.25 μg/ml) [%],Cumulation percent of MIC ([1]; MIC 25 μg/ml) [%],Cumulation percent of MIC ([1]; MIC 100 μg/ml) [%],Cumulation percent of MIC [2] [%],Cumulation percent of MIC ([1]; MIC 50 μg/ml) [%],Cumulation percent of MIC ([1]; MIC 200 μg/ml) [%]
"CN(C)[C@@H]1C(=O)C(C(N)=O)=C(O)[C@@]2(O)C(=O)C3=C(O)c4c(O)cccc4[C@@](C)(O)[C@H]3C[C@@H]12 [R, Tetracycline]",5,9,14,32,68,100,,,
"CC1=C(C(=O)O)N2C(=O)[C@@H](NC(=O)[C@H](N)c3ccccc3)[C@H]2SC1 [S, Cefalexin]",,,,23,45,86,4,68,100

# From patent US4886667A, “External preparation composition” (priority 1985, dated 1989)
